{
  "source": "paper PMC5727259",
  "target": "Nav1.1 neuronal sodium channel (human) (UniProt P35498)",
  "assay": "cross-linking; DSS (membrane permeable, noncleavable) on HEK293 cells expressing the channels, before lysis; different concentrations (50 or 100 μM for Nav1.1 and Nav1.2), 10 to 20 min; western blot; control DMSO without DSS",
  "data": [
    {"substance": "Nav1.1 neuronal sodium channel (from UniProt P35498 1-2009) (natural protein)", "values": [
      {"measurement": "stoichiometry N", "result": 2}
    ]}
  ]
}
